The values that follow come from patent US20190256994A1, “Electrochemical Deposition of Elements in Aqueous Media” (LumiShield Technologies Incorporated, priority 2016, published 2019).

For data set [1] the following is noted: in water.
The format of data set [2] is physicochemical.
The format of data set [3] is physicochemical. This is another data set of the same source.
The mark [4] stands for this setting: 0.5 M aluminum in water, pH as in same row (not adjusted), glassy carbon vs Ag/AgCl (3 M NaCl).
[5] abbreviates: 0.5 M aluminum aqueous solution, not adjusted.
The mark [6] stands for this setting: 1 M aluminum in water, pH as in same row, glassy carbon working electrode vs Ag/AgCl (3 M NaCl), 50 mV/s.

Read-outs that look alike come from different tables or passages of the source.

Turning to “Aluminum bis(trifluoromethane)sulfonimide [Al(Tf2N)3]”, in data set [1], the stability in solution entry was “stable in solution for months”. For the same substance, the pH in data set [2] (1 M aluminum aqueous solution) came to 1.91.
For Aluminum methanesulfonate [Al(MS)3], the “peak potential for Al3+ reduction” value in data set [3] (1 M in water, pH 2.47, vs Ag/AgCl (3 M NaCl)) was “about −1.3 V”. Besides, in data set [2] (1 M aluminum aqueous solution), the pH is 2.47.
Take Aluminum trifluoroacetate [Al(TFA)6]: the “Reduction onset potential/V” value is recorded as −1.07 V in data set [3] (0.5 M aluminum in water, pH 1.18 (adjusted), glassy carbon vs Ag/AgCl (3 M NaCl)); −1.32 V in data set [3] (0.5 M aluminum in water, pH 3.34 (adjusted), glassy carbon vs Ag/AgCl (3 M NaCl)); “only gas” in data set [3] (setting [4]). For the same substance, the pH in data set [2] (setting [5]) amounted to 0.78.
Consider “Aluminum trifluoromethanesulfonate [Al(OTf)6]”, for which the “Reduction onset potential/V” value in data set [3] (setting [6]) is −1.35 V. The pH in data set [2] (1 M aluminum aqueous solution) was determined as 2.82.
As for Aluminum trifluoroacetate [Al(TFA)3], in data set [3] (setting [4]), the “Reduction onset potential/V” value is −1.10 V. In data set [2] (setting [5]), this substance showed a pH of 3.17.
Turning to Aluminum p-toluenesulphonate [Al(OTs)6], the “Reduction onset potential/V” value in data set [3] (0.5 M aluminum in water, pH adjusted to 1.35 with NH4OH, glassy carbon vs Ag/AgCl (3 M NaCl)) is given as −1.17 V; in data set [3] (setting [4]) it was −0.93 V. The pH in data set [2] (0.5 M aluminum aqueous solution, after pH adjustment) came to 1.35; in data set [2] (setting [5]) it was 0.24.
For the substance Aluminum methanesulfonate [Al(MS)1], the “Reduction onset potential/V” value in data set [3] (3 M aluminum in water, pH 3.15, glassy carbon vs Ag/AgCl (3 M NaCl), 50 mV/s) was −1.12 V. Also, the pH in data set [2] (3 M aluminum aqueous solution) is 3.15.
With Aluminum methanesulfonate [Al(MS)6], in data set [3] (setting [6]), the “Reduction onset potential/V” value is recorded as −1.11 V. In data set [2] (1 M aluminum aqueous solution), this substance displayed a pH of 1.00.
For Aluminum p-toluenesulphonate [Al(OTs)3] the same measures were −1.13 V and 2.36.
The like results for “Aluminum bis(trifluoromethane)sulfonimide [Al(Tf2N)1]” were, in that order, −1.20 V and 3.30.
